Target: T1, TRC40/RAMP4 complex (MBP-TRC40/HZZ-RAMP4op protein complex) (UniProt O43681 1-348; Q9Y6X1 1-66)
T1 construct: TRC40, wild type; as m1; RAMP4, tail-anchored substrate protein; also called TRC40-R4; TRC40wt/RAMP4; source: bacterial expression, co-expressed, purified (Ni-NTA, then amylose resin)
Test: reflectometric interference spectroscopy (RIfS); canine rough microsomes spread with POPC liposomes on a silicon-SiO2 chip; protein added stepwise from 40 nM to 1 µM; Langmuir fit of the adsorption isotherm; average of three independent measurements
Conditions: one partner purified

B1: TRC40 membrane receptor complex (WRB/CAML) in canine rough microsomes (complex)
chain 1: MSGAEADRWAWLLVLSFVFGCNVLRILLPSFSSFMSRLLQKDAEQEAQMRAEIQDMKQELSTVNMMDEFARYARLERKINKMTDKLKTHVKARTAQLAKIKWVISVAFYILQAALMVSLIWKYYSVPVAVVPSKWITPLDRLVAFPTRVAGGVGITCWILVCNKVVAIVLHPFS
chain 2: MEPLTVASDSGDRPGAPATSGLSASQRRAELRRRKLLMNSEQRINRIMGFHRPGSGAEEESQTKSKQQDSDKLNSLSIPSVSKRVVLGDSVSIGTTDQQSGVAEVKGTQLGDKLDSFIKPPECSNDVNLELRQRNRGDLTADTVQRGSRHGLEQYLSRFEEAMKLRKQLISEKPNQEDGNTTEEFDSFRIFRLVGCALLAFGVRAFVCKYLSIFAPFLTLQLAYMGLYKYFPKGEKKIKTTVLTAALLLSGIPAEVINRSMDTYSKMGEVFTDLCVYFFTFIFCHELFNYWGSEVP
- Kd: 262 nM

— article PMC3879356 (PLoS ONE, 2014)
